# pKi: −log10 of the molar value.
# Columns and labels:
# [1] = system: hTrypsin; assay: Trypsin assay, chromogenic substrate S-2222; conditions: read-out: Ki hTrypsin; Ki calculated from IC50; 30 minute incubation, HBSA buffer
# Method: (§1) The ability of compounds of the present invention to act as selective inhibitors of urokinase catalytic activity was assessed by determining the concentration of test compound which inhibited the activity of this enzyme by 50%, (IC50), and comparing this value to that determined for all or some of the following related serine proteases: recombinant tissue plasminogen activator (rt-PA), plasmin, activated protein C, chymotrypsin, factor Xa, thrombin and trypsin.
# (§2) The buffer used for all assays was HBSA (10 mM HEPES, pH 7.5, 150 mM sodium chloride, 0.1% bovine serum albumin).
# (§3) The assay for IC50 determinations was conducted by combining in appropriate wells of a Corning microtiter plate, 50 microliters of HBSA, 50 microliters of the test compound at a specified concentration (covering a broad concentration range) diluted in HBSA (or HBSA alone for V0 (uninhibited velocity) measurement), and 50 microliters of the enzyme diluted in HBSA. Following a 30 minute incubation at ambient temperature, 50 microliters of the substrate at the concentrations specified below were added to the wells, yielding a final total volume of 200 microliters (about 4 times Km). The initial velocity of chromogenic substrate hydrolysis was measured by the change in absorbance at 405 nm using a Thermo Max® Kinetic Microplate Reader over a 5 minute period in which less than 5% of the added substrate was utilized. The concentration of added inhibitor which caused a 50% decrease in the initial rate of hydrolysis was defined as the IC50 value. Ki may be calculated from the IC50 value.
# Trypsin catalytic activity was determined using the chromogenic substrate, S-2222 (benzoyl-L-isoleucine-L-glutamic acid-[gamma-methyl ester]-L-arginine-p-nitroanilide), which was obtained from DiaPharma Group. The substrate was made up in deionized water followed by dilution in HBSA prior to the assay in which the final concentration was 250 micromolar (about 4-times Km). Purified (3×-crystallized; TRL3) bovine pancreatic trypsin was obtained from Worthington Biochemical Corp. The enzyme was reconstituted in deionized water and diluted into HBSA prior to assay in which the final concentration was 0.5 nM.
# [2] = target: Urokinase (Abbokinase) (Homo sapiens, UniProt P00749); assay: Urokinase assay, chromogenic substrate S-2444; conditions: read-out: Ki uPA; Ki calculated from IC50; 30 minute incubation, HBSA buffer
# Method: as §1, §2, §3
# Urokinase catalytic activity was determined using the chromogenic substrate 150 mM S-2444 (L-Pyroglutamyl-glycyl-L-arginine-p-nitroaniline hydrochloride), obtained from DiaPharma Group, Inc. Urokinase (Abbokinase), manufactured by Abbott Laboratories, was obtained from Priority Pharmaceuticals and diluted to 750 pM in the HBSA assay buffer prior to use. The assay buffer was HBS (10 mM HEPES, 150 mM sodium chloride pH 7.4) with 0.1% BSA. Ki was calculated using the IC50 value.
SMILES,pKi [1],pKi [2]
N=C(N)Nc1ccc(CNC(=O)Cn2cccc(NS(=O)(=O)Cc3ccccc3)c2=O)cc1,5.60 to 7.00,
CC(C(=O)NCc1ccc(NC(=N)N)cc1)n1cccc(NS(=O)(=O)Cc2ccccc2)c1=O (centres unmarked),6.60 to 7.00,6.60 to 7.00
CC(C(=O)NCc1ccc(NC(=N)N)cc1)n1cccc(NS(=O)(=O)Cc2ccc(I)cc2)c1=O (centres unmarked),6.00 to 6.60,> 7.00
CC(C(=O)NCc1ccc(NC(=N)N)cc1)n1cccc(NS(=O)(=O)c2ccc(I)cc2)c1=O (centres unmarked),6.60 to 7.00,6.00 to 6.60
N=C(N)Nc1ccc(CNC(=O)Cn2cccc(NS(=O)(=O)Cc3ccc(I)cc3)c2=O)cc1,6.60 to 7.00,6.60 to 7.00
CC(C(=O)NCc1ccc(NC(=N)N)cc1)n1cccc(NS(=O)(=O)Cc2ccc(Br)cc2)c1=O (centres unmarked),6.60 to 7.00,> 7.00

# Source: patent US7262211B2
